Bioassay records deposited in PubChem by National Center for Advancing Translational Sciences (NCATS).
Sfp inh – blocks B. subtilis Sfp PPTase activity | Q9F4F7 | hit rate 3.5% among 310,000 | Potency, µM, without a hit: max response, negative = inhibition, most hits filed as inhibitors | AID 1490 | Biochemical Sfp PPTase activity, qHTS; active means well fitted inhibition curve with a large enough effect; inconclusive means small, poorly fitted or top-dose-only effect, or another doubt; inactive means no such curve, though single readings can be large or run the other way;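 further: the enzyme is Sfp with the accession as filed and its product quenches rhodamine fluorescence; potency means the concentration at half of the fitted maximal effect; 0% = enzyme reaction without inhibitor and -100% = no enzyme wells; top concentration of the series not given in the record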
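Step 1, compound plus 15 nM Sfp-PPTase, 15 min, room temperature. Step 2, add rhodamine-CoA (5 uM) and BHQ-2-YbbR (12.5 uM). Step 3, read 525/598 nm fluorescence at 0 and 30 min.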
ALDH1A1 block – blocks purified human ALDH1A1 activity | P00352 | Purified ALDH1A1, NADH fluorescence, propionaldehyde substrate | Potency, µM (series often up to 75.3 µM), for the others: at the top dose activity, negative = inhibition, most hits filed as inhibitors | 220,000 compounds, 7.3% hits; active = well fitted inhibition curve with a large enough effect, not every such curve was filed as active; inconclusive = small, poorly fitted or top-dose-only effect, or another doubt; inactive = no such curve, though single readings can be large or run the other way;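 note: potency is the fitted concentration of half-maximal effect; plate controls were no enzyme wells and a reference inhibitor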
JMJD2E inh – inhibitors of human JMJD2E histone demethylase | 230,000 compounds, 1.6% hits | JMJD2E catalytic domain, FDH-coupled NADH fluorescence (FDH is formaldehyde dehydrogenase) | B2RXH2 | Potency, µM (series often up to 57.1 µM), without a hit: at the highest dose activity change, negative = inhibition, most hits filed as inhibitors; active = well fitted inhibition curve with a large enough effect, not every such curve was filed as active; inconclusive = small, poorly fitted or top-dose-only effect, or another doubt; inactive = no such curve, though single readings can be large or run the other way;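 note: potency is the fitted concentration of half-maximal effect; 0% = wells with enzyme and -100% = buffer wells without enzyme; nearly all actives have a fitted effect of over 50% in size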
G9a inh – G9a (human) methyltransferase inhibition | 350,000 compounds, 8.8% hits | Q96KQ7 | G9a H3K9 monomethylation, AlphaScreen, 2 h | AID 504332 | Potency, µM (doses to about 102 µM), inactives show at the highest dose activity, negative = inhibition, actives largely listed as inhibitors; note: potency is the fitted concentration of half-maximal effect; % is set by controls: 0 for no effect and ±100 for the full control effect; nearly all actives have a fitted effect of over 75% in size
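Chemiluminescent proximity detection of H3K9 monomethylation, read after 10 min bead incubation in the dark. Reaction: 20 nM G9a, 500 nM biotin-H3K9 peptide, 20 uM SAM cofactor, 2 h, room temperature, following 15 min enzyme-compound preincubation.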
Lamin A splicing – changes lamin A minigene splicing in HeLa cells | 200,000 compounds, 0.01% hits | Potency, µM (highest dose often 46.1 µM), for the others: at the highest dose ratio change, negative = inhibition, most hits filed as inhibitors | HeLa LMNA splicing GFP/RFP minigene ratio, 48 h; active = well fitted inhibition curve with a large enough effect in the signal ratio, with a control signal flat, not every such curve was filed as active; inconclusive = small, poorly fitted or top-dose-only effect, or effect the other way, or a change in a side signal; the % refers to the signal ratio; note: potency is the fitted concentration of half-maximal effect; % is set by controls: 0 for no effect and ±100 for the full control effect
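S3 HeLa stable clones carrying a lamin A-EGFP splicing minigene plus DsRed2 were seeded at 600 cells/well in Opti-MEM with 2% FBS, pin-dosed and incubated 48 h at 37°C. Acumen cytometry (488 nm) gave the GFP/RFP total-intensity ratio.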
miR-21 reporter – miR-21 reporter, rising signal. HeLa miR-21 FLuc reporter, luciferase, 48 h. Potency, µM (titrated, usually from 38.3 µM), without a hit: at the top dose reporter change, positive = more light. 340,000 tested, under 10 active. AID 2288; active = well fitted rising curve with a large enough effect; inconclusive = small, poorly fitted or top-dose-only effect; inactive = no such curve, though single readings can be large or run the other way;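 also: % of control where 0% means no effect; miR-21 action dims this reporter so a rising signal means less miR-21 action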
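HeLa cells endogenously expressing miR-21, stably carrying CMV-driven firefly luciferase with a downstream miR-21 binding site, 2000 cells/well. Titrations up to approximately 40 uM, 48 hours; luciferase luminescence read.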
Starred values were filed as active, the others as inactive; [ ] = another dose, or the depositor's remark. Rows were chosen to be rich in hits. Some 13% of all compounds tested hit in one or more screens of this group. Unless noted, calls come from the whole dose curve; as a rule, active = well fitted curve in the direction sought with a large enough effect; inconclusive = small, poorly fitted or top-dose-only effect, or another doubt; inactive = no such curve, though single readings can be large; an effect the other way counts as inactive or inconclusive.

The opening 2 compounds (preview)
`O=C(Nc1cccc2oc(=O)ccc12)c1ccc([N+](=O)[O-])cc1[N+](=O)[O-]` gave Sfp inh 3.8%, ALDH1A1 block 7.94µM*, JMJD2E inh 0.5%, G9a inh inconclusive, Lamin A splicing -6.0% and miR-21 reporter -7.1%.
For COc1ccc(C)cc1NC(=O)c1ccc([N+](=O)[O-])cc1[N+](=O)[O-] the results were Sfp inh 17.2%, ALDH1A1 block 11.2%, JMJD2E inh 8.1%, G9a inh -26.6%, Lamin A splicing -13.8%[46 µM] and miR-21 reporter 7.4%.

The listing (from the top)
`O=C(Nc1cccc2oc(=O)ccc12)c1ccc([N+](=O)[O-])cc1[N+](=O)[O-]` gave Sfp inh 3.8%, ALDH1A1 block 7.94µM*, JMJD2E inh 0.5%, G9a inh inconclusive, Lamin A splicing -6.0% and miR-21 reporter -7.1%.
For COc1ccc(C)cc1NC(=O)c1ccc([N+](=O)[O-])cc1[N+](=O)[O-] the results were Sfp inh 17.2%, ALDH1A1 block 11.2%, JMJD2E inh 8.1%, G9a inh -26.6%, Lamin A splicing -13.8%[46 µM] and miR-21 reporter 7.4%.
Screening O=C(Cn1c(=O)oc2ccccc21)Nc1nc(-c2ccccc2)cs1 returned Sfp inh 1.7%, ALDH1A1 block -0.5%, JMJD2E inh 4.4%, G9a inh 10.5%[59 µM], Lamin A splicing -0.7% and miR-21 reporter -12.9%.
CC(C)(C)c1csc(NC(=O)Cn2c(=O)oc3ccccc32)n1 was read as Sfp inh -12.7%, ALDH1A1 block inconclusive, JMJD2E inh -2.4%, G9a inh 11.2µM*, Lamin A splicing -14.4% and miR-21 reporter -9.1%.
`O=C(Cn1c(=O)oc2ccccc21)Nc1n[nH]c(=S)s1` gave Sfp inh 31.6µM*, JMJD2E inh inconclusive, G9a inh 1.26µM* and miR-21 reporter -3.8%.
`Cc1ccc(Cn2cc(CCC(=O)O)c3ccccc32)cc1` gave Sfp inh 13.4%, G9a inh 44.7µM* and miR-21 reporter 0.1%.
Screening Oc1ccc(Nc2nc(NCC3CCCO3)c3ccccc3n2)cc1 (stereo not drawn) returned Sfp inh -13.9%, ALDH1A1 block -8.6%, JMJD2E inh -4.3%, G9a inh 50.1µM*, Lamin A splicing inconclusive and miR-21 reporter 14.2%.
`COc1cccc(Nc2nc(NCC3CCCO3)c3ccccc3n2)c1` (stereo not drawn) gave Sfp inh 25.1µM*, ALDH1A1 block inconclusive, JMJD2E inh inconclusive, G9a inh 44.7µM*, Lamin A splicing -10.8% and miR-21 reporter 27.1%.
CC(C)Oc1ccc(-c2nc(NCC3CCCO3)c3ccccc3n2)cc1 (stereo not drawn) was read as Sfp inh -9.5%, ALDH1A1 block inconclusive, JMJD2E inh inconclusive and miR-21 reporter -25.9%.
For Oc1ccccc1Nc1nc(NCC2CCCO2)c2ccccc2n1 (stereo not drawn) the results were Sfp inh -11.5%, ALDH1A1 block inconclusive, JMJD2E inh -3.9%, G9a inh 50.1µM*, Lamin A splicing inconclusive and miR-21 reporter 27.0%.
`c1csc(-c2nc(NCC3CCCO3)c3ccccc3n2)c1` (stereo not drawn) gave Sfp inh 2.9%, G9a inh 15.3% and miR-21 reporter 12.7%.
`C#CC(C)(CC)NC(=O)c1cc2c(n(-c3ccc(Cl)cc3)c1=O)CC(C)(C)CC2=O` (stereo not drawn) gave G9a inh -3.6%[59 µM] and miR-21 reporter 3.3%.
`C=CCOC(=O)C(=O)/C=C/c1coc2ccccc2c1=O` gave Sfp inh 44.7µM*, ALDH1A1 block 31.6µM*, JMJD2E inh 118.4%, G9a inh -117.0%[59 µM] and miR-21 reporter 0.8%.
Screening CCOc1ccc(NC(=O)C2CCCN(S(=O)(=O)c3c(C)noc3C)C2)cc1 (stereo not drawn) returned Sfp inh 32.5%, G9a inh -12.2% and miR-21 reporter 0.2%.
For Cc1nn(C)cc1S(=O)(=O)Nc1cccc(Cl)c1 the results were Sfp inh 24.5%, G9a inh inconclusive and miR-21 reporter 1.8%.
For CC(=O)C1=C(C)NC(SCc2ccc(C#N)cc2)=C(C#N)C1c1ccco1 (stereo not drawn) the results were Sfp inh inconclusive, ALDH1A1 block 22.4µM*, JMJD2E inh -10.9%, G9a inh inconclusive, Lamin A splicing inconclusive and miR-21 reporter -0.1%.
CC1=C(C(=O)Nc2nc3ccccc3s2)C(c2ccco2)C(C#N)=C(SCC(=O)NC2CCCCC2)N1 (stereo not drawn) was read as Sfp inh 35.9%, ALDH1A1 block inconclusive, JMJD2E inh inconclusive, G9a inh inconclusive, Lamin A splicing inconclusive and miR-21 reporter 15.1%.
CC(=O)C1=C(C)NC(SCc2cccc3ccccc23)=C(C#N)C1c1ccco1 (stereo not drawn) was read as Sfp inh 50.1µM*, ALDH1A1 block inconclusive, JMJD2E inh inconclusive, G9a inh 31.6µM*, Lamin A splicing inconclusive and miR-21 reporter -10.1%.
Screening Cc1ccc(C(=O)Nc2cccc(NC(=O)CN3CCCCC3)c2)cc1 returned Sfp inh 5.4% and miR-21 reporter -16.5%.
CCCCN1C(=O)C(O)(CC(=O)c2c(C)coc2C)c2ccccc21 (stereo not drawn) was read as Sfp inh 14.9%, ALDH1A1 block 10µM*, JMJD2E inh 3.0%, G9a inh inconclusive, Lamin A splicing -15.4%[46 µM] and miR-21 reporter -3.0%.

An excerpt from above in order of count of non-hydrogen atoms, smallest number first:
`c1csc(-c2nc(NCC3CCCO3)c3ccccc3n2)c1` (stereo not drawn) gave Sfp inh 2.9%, G9a inh 15.3% and miR-21 reporter 12.7%.
Screening Oc1ccc(Nc2nc(NCC3CCCO3)c3ccccc3n2)cc1 (stereo not drawn) returned Sfp inh -13.9%, ALDH1A1 block -8.6%, JMJD2E inh -4.3%, G9a inh 50.1µM*, Lamin A splicing inconclusive and miR-21 reporter 14.2%.
For CC(=O)C1=C(C)NC(SCc2ccc(C#N)cc2)=C(C#N)C1c1ccco1 (stereo not drawn) the results were Sfp inh inconclusive, ALDH1A1 block 22.4µM*, JMJD2E inh -10.9%, G9a inh inconclusive, Lamin A splicing inconclusive and miR-21 reporter -0.1%.

Other entries.
Screening Cc1ccc(C(=O)CC2(O)C(=O)N(C)c3ccccc32)s1 (stereo not drawn) returned Sfp inh inconclusive, ALDH1A1 block 2.1%, JMJD2E inh -2.4%, G9a inh 44.7µM* and miR-21 reporter -6.7%.
For CCCCN1C(=O)C(O)(CC(=O)c2ccccc2OC)c2ccccc21 (stereo not drawn) the results were Sfp inh 20.6%, ALDH1A1 block 8.91µM*, JMJD2E inh 0.0%, G9a inh 13.4%, Lamin A splicing 5.2% and miR-21 reporter -2.8%.
For CCCCN1C(=O)C(O)(CC(=O)c2ccccn2)c2ccccc21 (stereo not drawn) the results were Sfp inh 9.9%, ALDH1A1 block 1µM*, JMJD2E inh -7.4%, G9a inh 4.8%, Lamin A splicing 0.9%[46 µM] and miR-21 reporter -1.1%.
Screening Cc1cc(C)cc(OCc2cc(=O)n3c4c(sc3n2)CCCC4)c1 returned G9a inh -5.6%[59 µM] and miR-21 reporter -5.2%.
`Cc1c(-c2ccccc2)nc2c(Cl)cccc2c1C(=O)OCC(=O)c1ccc(F)cc1` gave G9a inh 3.9%[59 µM] and miR-21 reporter 3.2%.
Screening COc1ccc(NC(=O)CC2C(=O)N(c3cccc(OC)c3)C(=O)N2CCC2=CCCCC2)cc1 (stereo not drawn) returned G9a inh 14.7%[59 µM] and miR-21 reporter 26.9%.
For COC(=O)CSc1nc2sc3c(c2c(=O)[nH]1)CCC3 the results were Sfp inh 0.5%, JMJD2E inh -3.5% and miR-21 reporter -1.4%.
Screening CCOC(=O)c1sc2nc(N3CCOCC3)c3c(c2c1N)CCCC3 returned Sfp inh 7.3%, ALDH1A1 block inconclusive, JMJD2E inh inconclusive, G9a inh 1.8%, Lamin A splicing -1.5% and miR-21 reporter 0.8%.
